Values quoted from earlier work in publication PMC7076382 (Pharmaceutics, 2020).

Settings: in vivo; cited from earlier work

In the case of desmopressin, the absorbed fraction is listed as “below 1%”.
